From US20030113828A1, “Compositions and methods for modulating Syk function” (priority 2001, published 2003)

Target: Syk (Homo sapiens, UniProt P43405)
Assay: Surface plasmon resonance (BIAcore) of Syk/integrin cytoplasmic domain interactions
Type: binding
Parameters: Syk(6-370) was cleaved from GST-Syk(6-370) coated Glutathione Sepharose™ 4B by thrombin; GST (N, cleaved yes); made in house; host or cells: bacteria (pGEX vector, IPTG induction)
Details: judged by both affinity chromatography and surface plasmon resonance; read-out: Kd of integrin β cytoplasmic domains for the tandem SH2 domains
Protocol: GST fusion proteins were produced in accordance with procedures described by Shiue et al. ((1995) Mol Cell Biol 15:272-281). Briefly, exponential growth phase bacteria were induced with 0.1 mM IPTG for 4 hours at 37° C. Cells were then pelleted, resuspended in lysis buffer (PBS with 0.5% TritonX-100, 1 mM DTT, 1 mM PMSF, and protease inhibitors (Boehringer Mannheim, Germany)), and sonicated at 4° C. Lysates were clarified at 20,000×g for 30 minutes, and supernatant was incubated with Glutathione Sepharose™ 4B (Amersham Pharmacia Biotech, Piscataway, N.J.) pre-equilibrated in lysis buffer. The mixture was incubated overnight at 4° C., then washed 4× in elution buffer (100 mM Tris pH 8.0, 100 mM NaCl, 1 mM DTT, 1 mM PMSF) without GSH. Final elution was carried out in elution buffer containing 20 mM Glutathione. For BIAcore analysis of Syk binding to integrin cytoplasmic domains, Syk(6-370) was cleaved from GST-Syk(6-370) coated Glutathione Sepharose™ 4B by thrombin (1 Unit/mg protein) overnight at 4° C.
BIAcore 3000 (BIAcore, Uppsala, Sweden) was used for real time kinetic analysis of the Syk/integrin cytoplasmic domain interactions. Experimental procedures, integrin cytoplasmic domain modifications, and data analysis was performed in accordance with procedures described by Yan et al. ((2001) J Biol Chem 276:28164-28170).

β1: integrin β1 cytoplasmic domain model protein
Kd: 76 nM
